Assay results from patent US8497349B2, “Use of multivalent synthetic ligands of surface nucleolin for treating cancer or inflammation” (Centre National de la Recherche Scientifique (CNRS), priority 2006, dated 2013).

Tests used:
[1] = Solubility in aqueous media; assay type: physicochemical
[2] = test system: B16-BL6 mouse melanoma line; experiment: Anchorage-independent growth of B16-BL6 on wet agar (colony count); assay type: cell-based; conditions: 1 μM of HB-19; 10 days
Description: (§1) FIG. 7. Effect of anti-nucleolin (anti Nu) (A), and HB-19 (B) on B16-BL6 growth on wet agar. B16-BL6 cells are cultured in a culture medium with 0.35% agar on a 0.6% agar matrix. After 10 days in culture, colonies with a diameter greater than 50 μm were counted. 5 areas per well and each point in triplicate, (*p<0.05 and **p<0.01).
(§2) In parallel to these studies on cell proliferation, the role of nucleolin on anchorage-independent growth, the phenotype characteristic of transformed cells, was tested in a growth model on wet agar using the human mammary carcinoma line, MDA-MB-231, as well as a mouse melanoma line, B16-BL6.
(§3) In these experiments, cells were cultured on agar gel in the presence or absence of varying concentrations of the control anti-nucleolin antibodies, control immunoglobulins or compound HB-19. After 10 days of incubation at 37° C., the number of colonies present in each culture plate was counted.

cells cultured in vitro = experiment: Toxicity on cells cultured in vitro for several weeks in the presence of HB19; assay type: cell-based
Text: This greatly limits the possibility of the occurrence of side effects.

MDA-MB231 tumours = experiment: Tumour growth in MDA-MB231 xenograft model in athymic mice; assay type: in vivo, athymic mice (nude/nude)
Description: FIG. 9. Effect of HB-19 on tumour growth in an MDA-MB231 xenograft model. Human mammary carcinoma MDA-MB231 cells were injected subcutaneously athymic mice (nude). When the tumour reached a volume of 200 mm^3, mice were treated by subcutaneous route as shown in graph in A. B. Observation and measurement of tumours in mice sacrificed at day 40. C. Tumour weight in mice sacrificed at day 40.
FIG. 10. Effect of HB-19 on tumour growth in an MDA-MB231 xenograft model. Changes in tumour growth. Intraperitoneal (IP) or subcutaneous (SC) injections.
Groups of 4 athymic mice (nude/nude) were injected in the flank with 2×10^6 cells. When tumour volume reached at least 200 mm^3, mice were either treated or not by injection in the tumour (peritumoral or subcutaneous route) of 100 μl every two days of a PBS solution (control group) or HB-19 solution (5 mg/kg) or a commonly used clinical agent, tamoxifen (also called […], 10 mg/kg). Tumour size was measured on days 7, 14, 21, 28, 34 and 40 using a calliper.
In another experiment, HB19 (5 mg/kg) was administered by intraperitoneal route (IP) and peritumoral route (SC) (FIG. 10).

[3] = test system: MDA-MB-231 human mammary carcinoma line; experiment: Anchorage-independent growth of MDA-MB-231 on wet agar (colony count); assay type: cell-based; conditions: 1 μM of HB-19; 10 days
Description: as §1, with “6.” for “7.”, “(A), isotype IgG (B)” for “(A),”, “(C)” for “(B)”, “MDA-MB231” for “B16-BL6”, “(**p<0.01).” for “(*p<0.05 and **p<0.01).”
as §2, §3

TNF-α = TNF-α production by primary peritoneal murine macrophages stimulated by LPS (ELISA); assay type: cell-based, mouse; conditions: 4 μM of HB-19; LPS 100 and 1000 ng/ml; base level taken into account
Description: FIG. 19. Inhibition by HB-19 of the production of TNF-α and IL-6 by primary peritoneal murine macrophages stimulated by various LPS preparations. Peritoneal murine macrophages in the absence (−) or presence (+) of 4 μM of HB-19 were either not stimulated (B4 0) or stimulated with LPS from Escherichia coli type 0111:B4 at 100 ng/ml (B4 100) and 1000 ng/ml (B4 1000). Cell cultures were incubated at 37° C. in an incubator with 5% CO2 for 20 hours and levels of TNF-α (A) and IL-6 (B) were measured by ELISA.
FIG. 20. Inhibition by Nucant 7 of the production of TNF-α and IL-6 by primary peritoneal murine macrophages stimulated by various LPS. Peritoneal murine macrophages in the absence (−) or presence (+) of 10 μM of Nucant 7 were either not stimulated (−) or stimulated (+) with LPS from Escherichia coli type 0111:B4 at 10 ng/ml, 100 ng/ml and 1000 ng/ml. Cell cultures were incubated at 37° C. in an incubator with 5% CO2 for 20 hours and levels of TNF-α (A) and IL-6 (B) were measured by ELISA. […]
Macrophages, in the absence (−) or presence (+) of 4 μM HB-19 or 10 μM Nucant 7, were either non-stimulated or stimulated with LPS from Escherichia Coli serotype 0111:B4 at 10 ng/ml, 100 ng/ml and 1000 ng/ml. […] TNF-α and IL-6 protein levels were measured by ELISA.

## CCCC[C@H](NC(=O)[C@H](CCCCNC(=O)[C@H](CCCNC(=N)N)NC(=O)[C@@H]1CCCN1C[C@@H](N)CCCCN)NC(=O)[C@H](CCC(=O)O)NC(=O)[C@H](CCCCNC(=O)[C@H](CCCNC(=N)N)NC(=O)[C@@H]1CCCN1C[C@@H](N)CCCCN)NC(=O)[C@@H]1CCCN1C(=O)CNC(=O)[C@H](CCCCNC(=O)[C@H](CCCNC(=N)N)NC(=O)[C@@H]1CCCN1C[C@@H](N)CCCCN)NC(=O)[C@H](CCCCN)NC(=O)[C@H](CCCCNC(=O)[C@H](CCCNC(=N)N)NC(=O)[C@@H]1CCCN1C[C@@H](N)CCCCN)NC(=O)[C@H](CCCNC(=N)N)NC(=O)[C@@H]1CCCN1C[C@@H](N)CCCCN)C(N)=O [HB19, 5[Kpsi(CH2N)PR]-TASP]
[1]
  solubility in aqueous media: totally soluble
[2]
  inhibition of the number of clones: > 50%
Cells cultured in vitro
  toxic effect on cells cultured in vitro: no toxic effect
MDA-MB231 tumours; 5 mg/kg
  anti-tumour action by intraperitoneal route (IP) versus peritumoral route (SC): equally effective
MDA-MB231 tumours; 5 mg/kg every two days, peritumoral or subcutaneous
  tumour size of untreated control mice relative to treated mice: 7 ×
MDA-MB231 tumours; HB-19 5 mg/kg, after 21 days of treatment
  tumour detectability (volume): undetectable
MDA-MB231 tumours; HB-19 5 mg/kg, after 40 days of treatment
  tumours removed at sacrifice: no tumours were found
MDA-MB231 tumours; end of the experiment
  anatomical examination of organs, blood formula, platelet count: did not reveal any visible sign of tissue toxicity nor any change in blood formula or platelet count
MDA-MB231 tumours; in the course of treatment
  physiological or behavioural signs in treated mice: no abnormal physiological or behavioural sign was observed
[3]
  decrease in the number of colonies: 59%
TNF-α
  net degree of inhibition of TNF-α production: 72-75%
